Protein sequences, listed by entry. Tags and fused reporters are not part of them. Residues count along the entry.
UniProt Q9WU72, 127-309 limits assumed: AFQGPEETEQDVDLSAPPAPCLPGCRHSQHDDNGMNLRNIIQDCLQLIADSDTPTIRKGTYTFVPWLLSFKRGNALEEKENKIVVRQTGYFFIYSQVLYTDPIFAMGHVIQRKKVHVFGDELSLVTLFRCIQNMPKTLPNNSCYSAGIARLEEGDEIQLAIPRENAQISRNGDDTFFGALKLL
UniProt Q9Y275, 134-285 limits assumed: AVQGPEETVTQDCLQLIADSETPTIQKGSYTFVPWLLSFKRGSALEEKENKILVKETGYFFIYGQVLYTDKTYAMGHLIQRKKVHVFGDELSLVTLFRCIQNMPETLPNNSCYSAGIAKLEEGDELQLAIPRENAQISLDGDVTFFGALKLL

In patent US20170101466A1 (published 2017):

T1: mouse APRIL (mouse, UniProt Q9D777 96-241, limits assumed)
T1 construct: Bought recombinant protein; also called mAPRIL
T1 sequence (looked up): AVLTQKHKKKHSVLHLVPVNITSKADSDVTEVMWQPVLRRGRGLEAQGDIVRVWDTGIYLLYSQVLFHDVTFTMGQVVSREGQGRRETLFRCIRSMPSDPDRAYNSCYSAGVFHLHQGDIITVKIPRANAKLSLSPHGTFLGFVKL

T2: human APRIL (human, UniProt O75888 105-250, limits assumed)
T2 construct: Bought recombinant protein; also called hAPRIL
T2 sequence (looked up): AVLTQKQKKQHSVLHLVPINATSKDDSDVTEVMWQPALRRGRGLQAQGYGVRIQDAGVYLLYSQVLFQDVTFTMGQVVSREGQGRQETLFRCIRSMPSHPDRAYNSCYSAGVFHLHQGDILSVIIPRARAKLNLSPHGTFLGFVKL


Experiments:
soluble mouse BLyS [1] = biological target: T3, soluble mouse BLyS (mouse, UniProt Q9WU72 127-309); test: Biacore T100, binder captured by anti-human Fc, BLyS injected, 1:1 model
T3 construct: europium-labelled in DELFIA; also called mBLyS; mouse BAFF (BLyS)
Method: (§1) A Series S CM5 Chip (GE Healthcare) was amine coupled with an anti-human Fc capturing antibody (GE Healthcare Human Fc Kit) to >10,000 RUs. Sample antibodies were diluted in 1×HBS-EP+ running buffer to 0.15 ug/mL and injected for 45 seconds at 10 uL/min. Serially diluted human or mouse BLyS (R&D Systems) was injected for 6 minutes at 30 μl/min and dissociation was monitored for 20 minutes. The anti-BLyS and BLyS complex were removed from the capture surface with 3M MgCl₂ for 40 seconds at 10 μl/min. Binding data was reference subtracted with both a negative BLyS binder (commercial Herceptin) and a 0 μM BLyS injection. Biacore Evaluation software was used to fit the data to a 1:1 Binding Model.

soluble human BLyS [2] = biological target: T4, soluble human BLyS (human, UniProt Q9Y275 134-285); test: as above
T4 construct: also called hBLyS; human BAFF (BLyS)
Method: as §1

soluble mouse BLyS [3] = biological target: T3, soluble mouse BLyS; test: Biacore, antibody captured on chip, BLyS injected, 1:1 model, 25 C
Method: (§2) Recombinant protein NG (Thermo Scientific, Cat #21186) was diluted to 100 μg/ml in 10 mM sodium acetate pH 4.0 and then immobilized on the surface of a pre-activated Series S CM5 Biacore chip (GE, Cat #BR-1005-34) using amine coupling. To determine binding kinetics of anti-BLyS antibodies to human BLyS (R&D systems, Cat #2149-BF-010/CF) or mouse BLyS (R&D Systems, Cat #2106-BF-010/CF), the mAbs were captured on each of the four CM5 chip flow cells (with flow cell one serving as a control and reference) by injecting 0.5 μg/ml Abs over individual flow cells for 30 seconds at 10 μl/min (yields ˜100 RU capture). hBLyS or mBLyS was then passed over all four flow cells at 30-50 μl/min for 600 seconds, followed by a dissociation period of 2,400 seconds. After the dissociation period, the chip was regenerated back to baseline by injecting 10 mM glycine pH 1.5 for 120 seconds over the four flow cells. This was repeated for each BLyS injection over 11 injections of a 2/3-fold dilution titration range starting at 20 nM. The entire data set was fit to a 1:1 interaction model to give kₒₙ, koff, and Kd values. The assay was run at 25° C. in 1× biacore running buffer HBS-EP+ (GE, Cat #BR-1006-69).

soluble human BLyS [4] = biological target: T4, soluble human BLyS; test: as above
Method: as §2

soluble mouse BLyS [5] = biological target: T3, soluble mouse BLyS; test: DELFIA competition, Eu-mBLyS binding to coated TACI
Method: (§3) Anti-BLyS mAb receptor blocking assay was evaluated using Perkin Elmer's DELFIA assay technology (dissociation-enhanced lanthanide fluorescence immunoassay) which is a time-resolved fluorescence (TRF) intensity technology. […] DELFIA yellow 96-well low auto-fluorescent assay plates (PE, Cat #AAAND-0001) were coated overnight at 4° C. with 0.1 μg/well of select human or mouse BLyS cognate receptor chimera from R&D Systems (BCMA, BR3 and TACI). After 5× washing with 200 ul/well of DELFIA 1× wash solution (PE, Cat #4010-0010), plates were blocked with 3% BSA purified from trace heavy metal amounts (PE, Cat #CR84-100) for 3 hours with shaking at room temperature. Plates were washed again five times at 200 μl/well with DELFIA wash solution.
(§4) After wash, 50 μl/well of BLyS mAbs were added to wells across the plate in a 9 point 1/3-fold dilution titration series starting at 2,000 pM to 0.3 pM. The final 3 wells across the plate served as controls (2 wells contained 2,000 pM mAbs for negative and background controls while the third contained no mAbs for positive control). 50 ul/well of 100 pM BLyS was then added to each well, except the negative-control wells, and plates were briefly spun down. After 18-24 hrs at 4° C., plates were read on PE EnVision plate reader with laser excitation, LANCE/DELFIA top mirror, and emission filter Eu-615 with a delay of 400 μs. Data were fit to four parameter (variable slope) inhibition dose response curve using GraphPad PRISM 5.0 software.

soluble mouse BLyS [6] = biological target: T3, soluble mouse BLyS; test: DELFIA competition, Eu-mBLyS binding to coated BCMA
Method: as §3, §4

soluble mouse BLyS [7] = biological target: T3, soluble mouse BLyS; test: DELFIA competition, Eu-mBLyS binding to coated BR3
Method: as §3, §4

soluble human BLyS [8] = biological target: T4, soluble human BLyS; test: DELFIA competition, Eu-hBLyS binding to coated BR3
Method: as §3, §4

soluble human BLyS [9] = biological target: T4, soluble human BLyS; test: DELFIA competition, Eu-hBLyS binding to coated BCMA
Method: as §3, §4

mouse APRIL [10] = biological target: T1, mouse APRIL; test: Biacore, antibody captured, APRIL injected
Method: (§5) Recombinant protein NG (Thermo Scientific, Cat #21186) was diluted to 100 μg/ml in 10 mM Sodium Acetate pH 4.0 and then immobilized on the surface of a pre-activated Series S CM4 Biacore chip (GE, Cat #BR-1005-34) using amine coupling. The monoclonal antibodies were captured individually on each of the four CM4 chip flow cells (with flow cell one serving as a reference) by injecting about 5 μg/ml monoclonal antibodies over individual flow cells for 120 seconds at 10 μl/min (yields 1,000-2,000 RU capture). To determine binding of human APRIL (R&D Systems, Cat #5860-AP-010/CF) and mouse APRIL (R&D Systems, Cat #7907-AP-010/CF) to the anti-BLyS antibodies, the APRIL protein as injected manually at 50 nM for 300 seconds at 10 μl/min. Binding response was measured as the difference in total RU increase during 300 second APRIL injection of each individual flow cell and the reference flow cell (e.g., Flow cell 2-1).

human APRIL = biological target: T2, human APRIL; test: Biacore, antibody captured, APRIL injected
Method: as §5

soluble human BLyS [11] = biological target: T4, soluble human BLyS; test: DELFIA competition, Eu-hBLyS binding to coated TACI
Method: as §3, §4

soluble mouse BLyS [12] = biological target: T3, soluble mouse BLyS; test: Biacore
soluble human BLyS [13] = biological target: T4, soluble human BLyS; test: Biacore
soluble mouse BLyS [14] = biological target: T3, soluble mouse BLyS; test: ELISA, soluble mBLyS
soluble cynomolgus BLyS = biological target: T5, soluble cynomolgus BLyS (cynomolgus, UniProt A0A2K5V2X4 134-285); test: ELISA, soluble cyBLyS
T5 construct: Soluble form; also called cyBLyS; Soluble cyBLyS

soluble human BLyS [15] = biological target: T4, soluble human BLyS; test: ELISA, soluble hBLyS
soluble human BLyS [16] = biological target: T4, soluble human BLyS; test: blocking of biotinylated soluble hBLyS binding to immobilized mBR3
mouse APRIL [17] = biological target: T1, mouse APRIL; test: Biacore, antibody captured, APRIL injected at 50 nM
Method: as §5

Binder | Kd (soluble mouse BLyS [1]) [nM] | koff (soluble mouse BLyS [1]) [s⁻¹] | kon (soluble mouse BLyS [1]) [M⁻¹ s⁻¹] | Kd (soluble human BLyS [2]) [nM] | koff (soluble human BLyS [2]) [s⁻¹] | kon (soluble human BLyS [2]) [M⁻¹ s⁻¹] | Kd (soluble mouse BLyS [3]) [nM] | koff (soluble mouse BLyS [3]) [s⁻¹] | kon (soluble mouse BLyS [3]) [M⁻¹ s⁻¹] | Kd (soluble human BLyS [4]) [nM] | koff (soluble human BLyS [4]) [s⁻¹] | kon (soluble human BLyS [4]) [M⁻¹ s⁻¹] | IC50 (soluble mouse BLyS [5]) [nM] | IC50 (soluble mouse BLyS [6]) [nM] | IC50 (soluble mouse BLyS [7]) [nM] | IC50 (soluble human BLyS [8]) [nM] | IC50 (soluble human BLyS [9]) [nM] | binding result (mouse APRIL [10]) | binding result (human APRIL) | IC50 (soluble human BLyS [11]) [nM] | further results
1B7 IgG1 F243A/V264A double mutein expressed in Pichia pastoris (antibody, V domains shown) VH: QVQLVQSGAKVKKPGASAKVSCKASGYTFTSYAMHWVRQAPGQRLEWMGWINAGNGNTKYSQKFQGRVTITRDTSASTAYMELSSLRSEDTAVYYCARAYYDILTGYSVYGMDVWGQGTTVTVSS VL: EIVLTQSPATLSLSPGERATLSCWTSQGVSGHLAWYQHKRGQAPRLLIYDTSNRATGVPARFSGSGSGTDFTLTISRLEPEDFAVYYCQQYGSSFWTFGQGTKVEIKR | 0.057 | 0.000171 | 2.98e+06 | 0.064 | 9.61e-05 | 1.42e+06 | 0.082 | 3.8e-05 | 470000 | 0.109 | 3.1e-05 | 290000 | > 2 | > 2 | > 2 | 0.0222 | < 0.0003 | no binding (tested: 50 nM) | no binding (tested: 50 nM) | < 0.0003 | –
10C11 IgG expressed in HEK293 cells (antibody, V domains shown) VH: EVQLVQSGAEVKKPGSSVKVSCKASGGTFSSYAISWVRQAPGQGLEWMGRIIPILGIANYAQKFQGRVTITADKSTSTAYMELSRLRSDDTAVYYCARDRFYDILTGYYTYYYGMDVWGQGTTVTVSS VL: DIVLTQSPGTLSFSPGERATLSCRASQNVANNFLAWFQHSPGQAPRLLIYDASNRATGIPARFSGSGSGTDFTLTISSLQTEDVAVYYCQQYYNLPYTFGQGTKLEIKR | – | – | – | – | – | – | 0.153 | 6.5e-05 | 430000 | 0.201 | 4.4e-05 | 220000 | 0.732 | 0.886 | > 2 | 0.0335 | < 0.0003 | – | no binding (tested: 50 nM) | < 0.0003 | Kd (soluble mouse BLyS [12]): 0.0313 nM; Kd (soluble human BLyS [13]): 0.43 nM; IC50 (soluble mouse BLyS [14]): 0.04 nM; IC50 (soluble cynomolgus BLyS): 0.07 nM; IC50 (soluble human BLyS [15]): 0.1 nM; IC50 (soluble human BLyS [16]): 0.07 nM

The remaining binders from weak to strong by Kd (soluble mouse BLyS [3]), led by results:

Kd (soluble mouse BLyS [1]) [nM] | koff (soluble mouse BLyS [1]) [s⁻¹] | kon (soluble mouse BLyS [1]) [M⁻¹ s⁻¹] | Kd (soluble human BLyS [2]) [nM] | koff (soluble human BLyS [2]) [s⁻¹] | kon (soluble human BLyS [2]) [M⁻¹ s⁻¹] | Kd (soluble mouse BLyS [3]) [nM] | koff (soluble mouse BLyS [3]) [s⁻¹] | kon (soluble mouse BLyS [3]) [M⁻¹ s⁻¹] | Kd (soluble human BLyS [4]) [nM] | koff (soluble human BLyS [4]) [s⁻¹] | kon (soluble human BLyS [4]) [M⁻¹ s⁻¹] | IC50 (soluble mouse BLyS [5]) [nM] | IC50 (soluble mouse BLyS [6]) [nM] | IC50 (soluble mouse BLyS [7]) [nM] | IC50 (soluble human BLyS [8]) [nM] | IC50 (soluble human BLyS [9]) [nM] | binding result (mouse APRIL [10]) | binding result (human APRIL) | IC50 (soluble human BLyS [11]) [nM] | Binder | further results
0.134 | 0.000275 | 2.06e+06 | 0.098 | 8.4e-05 | 855000 | 0.154 | 6.6e-05 | 430000 | 0.194 | 4.3e-05 | 220000 | > 2 | > 2 | > 2 | 0.041 | 0.0012 | – | no binding (tested: 50 nM) | 0.0012 | 10C11 IgG1 F243A/V264A double mutein expressed in Pichia pastoris (antibody, V domains shown) VH: EVQLVQSGAEVKKPGSSVKVSCKASGGTFSSYAISWVRQAPGQGLEWMGRIIPILGIANYAQKFQGRVTITADKSTSTAYMELSRLRSDDTAVYYCARDRFYDILTGYYTYYYGMDVWGQGTTVTVSS VL: DIVLTQSPGTLSFSPGERATLSCRASQNVANNFLAWFQHSPGQAPRLLIYDASNRATGIPARFSGSGSGTDFTLTISSLQTEDVAVYYCQQYYNLPYTFGQGTKLEIKR | binding result (mouse APRIL [17]): binds
– | – | – | – | – | – | 0.103 | 5e-05 | 490000 | 0.168 | 5.3e-05 | 310000 | > 2 | > 2 | > 2 | 0.0206 | < 0.0003 | no binding (tested: 50 nM) | no binding (tested: 50 nM) | < 0.0003 | 1B7 IgG expressed in HEK293 cells (antibody, V domains shown) VH: QVQLVQSGAKVKKPGASAKVSCKASGYTFTSYAMHWVRQAPGQRLEWMGWINAGNGNTKYSQKFQGRVTITRDTSASTAYMELSSLRSEDTAVYYCARAYYDILTGYSVYGMDVWGQGTTVTVSS VL: EIVLTQSPATLSLSPGERATLSCWTSQGVSGHLAWYQHKRGQAPRLLIYDTSNRATGVPARFSGSGSGTDFTLTISRLEPEDFAVYYCQQYGSSFWTFGQGTKVEIKR | Kd (soluble mouse BLyS [12]): 0.0127 nM; Kd (soluble human BLyS [13]): 1.73 nM; IC50 (soluble mouse BLyS [14]): 0.13 nM; IC50 (soluble cynomolgus BLyS): 0.1 nM; IC50 (soluble human BLyS [15]): 0.1 nM; IC50 (soluble human BLyS [16]): 0.91 nM
